One experiment concerns the target GCN2 kinase (Homo sapiens (Human), UniProt Q9P2K8). Put plainly: GCN2 Enzyme Inhibition Assay (Transcreener ADP2 fluorescence polarization). It counts as biochemical. The note with it: 280 μM ATP, 200 μM (RS)7 peptide, 4 nM GCN2, 25° C.; for Ki: read-out: GCN2 (Ki), Ki(app); for IC50: read-out: GCN2 (IC50).
For experiment [1], the target named is intracellular GCN2 (phosphorylation of the GCN2 substrate eIF2α) (Homo sapiens (Human), UniProt Q9P2K8). Kind of experiment: GCN2 Cellular Inhibition Assay (AlphaScreen SureFire P-eIF2α Ser51, borrelidin-treated U2OS cells). It counts as cell-based. The note with it: read-out: GCN2 Biomarker (IC50), 10 μM borrelidin, 1 h, phosphorylated eIF2α Ser51. As to the method:
Compounds can be screened for their ability to inhibit intracellular GCN2 using an AlphaScreen assay (Perkin Elmer) to detect phosphorylation of the GCN2 substrate eIF2α in borrelidin-treated cells. U2OS cells are plated at 5,000 cells per well in 384-well white polystyrene plates (Corning 3570) in McCoy's 5A media (GIBCO 26600-023) supplemented with 10% foetal bovine serum (SAFC 12103C), Penicillin/Streptomycin solution diluted 1:100 (Sigma P0781), and 2 mM L-glutamine (Sigma G7513), and allowed to adhere overnight at 37° C. in 5% CO2. Compounds are then added to the cell media from a final concentration of 40 μM in 4-fold serial dilutions. Borrelidin (FluoroChem M01440) is immediately added to the wells to a final concentration of 10 μM and the cells are incubated for 1 h at 37° C. in 5% CO2. After 1 h of treatment with borrelidin, the media is removed, and the cells are lysed with lysis buffer (TGR BioSceinces TGRLB) at ambient temperature.
An AlphaScreen SureFire P-eIF2α (Ser51) assay kit (Perkin Elmer TGREIF2S) was used to measure levels of eIF2α phosphorylated on Serine 51. Anti-phosphorylated eIF2α Ser51 antibody-linked acceptor beads (TGR BioScience 6760617) are added to the cell homogenate (diluted 1:250 into a mixture of activation (TGR BioScience TGRAB) and reaction buffer (TGR BioScience TGREIF2S) prepared immediately before use). The plate is then incubated for 2 h at ambient temperature in the dark. Anti-eIF2α antibody-linked donor beads (TGR BioScience 6760617) were then added (diluted 1:100 in dilution buffer (TGR BioScience TGRDB) prepared immediately before use). The plate is then incubated overnight at ambient temperature in the dark.
Plates are analyzed on an Alpha Technology-compatible PHERAstar FS plate reader (BMG Labtech Version 1.14) to quantify phosphorylated eIF2α Ser51 levels. The percentage inhibition of phosphorylated eIF2α is calculated by comparison to control wells stimulated with borrelidin alone.

By UniProt entry, the sequences of proteins in these tests, tags left out.
UniProt Q9P2K8, whole entry: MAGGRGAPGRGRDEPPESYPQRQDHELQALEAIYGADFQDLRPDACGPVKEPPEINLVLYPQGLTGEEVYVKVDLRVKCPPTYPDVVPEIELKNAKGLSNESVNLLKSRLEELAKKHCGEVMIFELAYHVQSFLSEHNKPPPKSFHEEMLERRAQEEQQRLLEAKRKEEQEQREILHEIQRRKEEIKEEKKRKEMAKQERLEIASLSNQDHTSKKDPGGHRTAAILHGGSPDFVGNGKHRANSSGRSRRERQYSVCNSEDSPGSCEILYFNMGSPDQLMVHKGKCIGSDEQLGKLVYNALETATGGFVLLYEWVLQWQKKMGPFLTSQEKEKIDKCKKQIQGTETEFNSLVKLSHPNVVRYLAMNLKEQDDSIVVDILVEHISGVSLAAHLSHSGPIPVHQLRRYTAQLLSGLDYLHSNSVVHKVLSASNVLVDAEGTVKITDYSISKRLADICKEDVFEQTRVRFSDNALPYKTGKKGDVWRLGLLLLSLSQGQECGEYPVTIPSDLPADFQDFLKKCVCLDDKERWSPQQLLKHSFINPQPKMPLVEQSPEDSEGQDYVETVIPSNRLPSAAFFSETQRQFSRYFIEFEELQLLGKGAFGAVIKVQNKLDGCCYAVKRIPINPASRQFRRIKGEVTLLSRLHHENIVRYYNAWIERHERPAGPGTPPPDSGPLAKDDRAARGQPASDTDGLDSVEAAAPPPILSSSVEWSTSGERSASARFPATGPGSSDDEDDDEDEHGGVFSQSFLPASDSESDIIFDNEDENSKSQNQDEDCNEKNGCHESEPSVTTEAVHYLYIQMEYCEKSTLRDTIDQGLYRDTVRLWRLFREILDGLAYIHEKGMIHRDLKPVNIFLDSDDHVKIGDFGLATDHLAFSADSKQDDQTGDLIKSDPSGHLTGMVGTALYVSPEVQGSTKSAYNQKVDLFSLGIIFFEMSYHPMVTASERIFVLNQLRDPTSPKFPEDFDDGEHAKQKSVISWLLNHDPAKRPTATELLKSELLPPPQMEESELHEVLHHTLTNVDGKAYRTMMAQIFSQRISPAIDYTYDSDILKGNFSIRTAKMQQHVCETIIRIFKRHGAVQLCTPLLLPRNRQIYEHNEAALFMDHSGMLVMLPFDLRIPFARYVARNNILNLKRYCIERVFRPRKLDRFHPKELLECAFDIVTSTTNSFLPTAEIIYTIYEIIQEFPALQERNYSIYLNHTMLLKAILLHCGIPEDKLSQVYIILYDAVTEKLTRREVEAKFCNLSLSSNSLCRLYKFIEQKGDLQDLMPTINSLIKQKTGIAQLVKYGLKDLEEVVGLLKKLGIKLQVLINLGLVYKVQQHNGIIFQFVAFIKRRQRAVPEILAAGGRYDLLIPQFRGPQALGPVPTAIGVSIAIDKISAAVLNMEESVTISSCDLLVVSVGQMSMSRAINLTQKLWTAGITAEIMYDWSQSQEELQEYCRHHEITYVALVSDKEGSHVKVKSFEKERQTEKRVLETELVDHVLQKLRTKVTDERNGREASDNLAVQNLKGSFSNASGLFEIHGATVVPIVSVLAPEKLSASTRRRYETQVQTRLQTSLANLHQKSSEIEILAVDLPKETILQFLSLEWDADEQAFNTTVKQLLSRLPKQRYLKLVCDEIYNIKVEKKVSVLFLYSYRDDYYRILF

For experiment [2], the system named is primary human pan T-cells. Put plainly: Human IL-2 Assay for GCN2 Inhibition (IL-2 secretion from T cells in low amino acid condition). The note with it: read-out: IL2/T-cell EC50; IL-2 secretion from human T cells stimulated with anti-CD3/CD28 in low amino acid condition; 96 hours; ELISA.

The results in this text go back to patent US10793563B2, “GCN2 inhibitors and uses thereof” (Merck Patent GmbH, priority 2018, dated 2020).

A value given as a limit tells only on which side of the number the result lay.

For the molecule `Fc1cc2ncc(-c3nccc(N4CCOC(c5cn[nH]c5)C4)n3)n2cc1Br` (centres unmarked), on GCN2 kinase, the Ki is less than 10 nM. Also, in experiment [1], the IC50 was less than 500 nM.

For the molecule `O=C(c1cnn(CCO)c1)N1CCN(c2ccnc(-c3cnc4ccc(C(F)(F)F)cn34)n2)CC1c1cn[nH]c1` (centres unmarked), the IC50 at GCN2 kinase is 100 to 1000 nM.

`C[C@H]1C[C@H](c2cn[nH]c2)CN(c2nccc(-c3cnc4ccc(N5CC(F)(F)C5)cn34)n2)C1`: the figures for the IC50 (on GCN2 kinase; in experiment [1]) were less than 10 nM and less than 500 nM, respectively. Also, the EC50 in experiment [2] is less than 100 nM.

In the case of `CC1CN(c2ccnc(-c3cnc4ccc(C(F)(F)F)cn34)n2)CC(c2cn[nH]c2)N1` (single isomer, unassigned), on GCN2 kinase, the Ki is less than 10 nM. The IC50 in experiment [1] is less than 500 nM.

With `C[C@H]1C[C@H](c2cn[nH]c2)CN(c2nccc(-c3cnc4ccc(N5CCC5)cn34)n2)C1`, the values for the IC50 (on GCN2 kinase; in experiment [1]) were 10 to 100 nM and less than 500 nM, respectively.

As to `CC1C(CNS(C)(=O)=O)N(C2CC2)CCN1c1ccnc(-c2cnc3ccc(C(F)F)cn23)n1` (centres unmarked), the values for the IC50 (at GCN2 kinase; in experiment [1]) were 10 to 100 nM and less than 500 nM, respectively.

As to `C[C@@H]1C[C@H](c2cn[nH]c2)CN(c2nccc(-c3cnc4ccc(N5CCC5)cn34)n2)C1`, the IC50 was less than 10 nM at GCN2 kinase and less than 500 nM in experiment [1].

Take `C[C@H]1CN(c2ccnc(-c3cnc4ccc(C(F)F)cn34)n2)C[C@@H](CNS(C)(=O)=O)C1(F)F`: the Ki at GCN2 kinase is less than 10 nM. For the same molecule, in experiment [1], the concentration for half-maximal inhibition (IC50) is 500 to 5000 nM.

For `COCCn1cc(C(=O)N2CCN(c3ccnc(-c4cnc5ccc(C(F)(F)F)cn45)n3)CC2c2cn[nH]c2)cn1` (centres unmarked), the figures for the IC50 (at GCN2 kinase; in experiment [1]) were 10 to 100 nM and 500 to 5000 nM, respectively.

As to `Cc1[nH]ncc1C1CC(F)CN(c2ccnc(-c3cnc4cc(F)c(C5CC5)cn34)n2)C1` (centres unmarked), the IC50 at GCN2 kinase was 10 to 100 nM.

For the molecule `O=C(O)CC1CCCN(c2ccnc(-c3cnc4ccc(Cl)cn34)n2)C1` (centres unmarked), at GCN2 kinase, the IC50 is 10 to 100 nM.

`C[C@@H]1[C@H](CNS(C)(=O)=O)N(C2CC2)CCN1c1ccnc(-c2cnc3ccc(C(F)F)cn23)n1`: the IC50 at GCN2 kinase was in the range of 100 to 1000 nM; in experiment [1] it was 500 to 5000 nM.

Consider `CC1CN(c2ccnc(-c3cnc4cc(F)c(Cl)cn34)n2)C(C)C(c2c[nH]cn2)N1` (centres unmarked), for which the Ki on GCN2 kinase is less than 10 nM. In experiment [1], the IC50 was in the range of 500 to 5000 nM.

Take `Cc1cc(C)n(CCC(=O)N2CCN(c3ccnc(-c4cnc5ccc(C(F)(F)F)cn45)n3)CC2c2cn[nH]c2)n1` (centres unmarked): the IC50 was 100 to 1000 nM at GCN2 kinase and greater than 5000 nM in experiment [1].

As to `C[C@H]1[C@@H](CNS(C)(=O)=O)N(C2CC2)CCN1c1ccnc(-c2cnc3ccc(C(F)F)cn23)n1`, the IC50 at GCN2 kinase is less than 10 nM; in experiment [1], less than 500 nM.

As to `CC(C)(C)OC(=O)N1C2CCCC1CN(c1ccnc(-c3cnc4ccc(C(F)(F)F)cn34)n1)C2`, the IC50 on GCN2 kinase was 100 to 1000 nM.
